Measured values published in PMC4460250, “Systems Pharmacology Dissecting Holistic Medicine for Treatment of Complex Diseases: An Example Using Cardiocerebrovascular Diseases Treated by TCM” (Evidence-based Complementary and Alternative Medicine : eCAM, 2015).

Sequences of proteins named here, by UniProt entry; tags and fusion partners are left off.
UniProt P11309, whole entry: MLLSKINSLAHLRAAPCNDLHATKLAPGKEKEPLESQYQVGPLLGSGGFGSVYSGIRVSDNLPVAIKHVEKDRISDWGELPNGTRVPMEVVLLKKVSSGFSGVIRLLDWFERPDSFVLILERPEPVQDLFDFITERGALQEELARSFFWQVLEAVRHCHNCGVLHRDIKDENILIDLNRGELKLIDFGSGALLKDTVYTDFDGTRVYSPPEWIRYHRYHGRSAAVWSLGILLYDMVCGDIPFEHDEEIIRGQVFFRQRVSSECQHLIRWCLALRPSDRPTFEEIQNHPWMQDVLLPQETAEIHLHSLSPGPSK

Target: PIM1 (Homo sapiens, UniProt P11309)
Experiment: PIM1 inhibition assay (ligand-binding assay, manufacturer's instructions)
Format: biochemical
Conditions: read-out: IC50 (μM): mean ± SD

Substance: Rhodiosin
- IC50: 96 ± 3.2 µM
